# Laboratory results as given in ChEMBL document CHEMBL5291721, “A preclinical secondary pharmacology resource illuminates target-adverse drug reaction associations of marketed drugs” (Nat Commun, 2023).
# Sequences of proteins named here, by UniProt entry; tags and fusion partners are left off. A change or cut given only in a name is not applied to a line headed by its entry.
# UniProt Q12809: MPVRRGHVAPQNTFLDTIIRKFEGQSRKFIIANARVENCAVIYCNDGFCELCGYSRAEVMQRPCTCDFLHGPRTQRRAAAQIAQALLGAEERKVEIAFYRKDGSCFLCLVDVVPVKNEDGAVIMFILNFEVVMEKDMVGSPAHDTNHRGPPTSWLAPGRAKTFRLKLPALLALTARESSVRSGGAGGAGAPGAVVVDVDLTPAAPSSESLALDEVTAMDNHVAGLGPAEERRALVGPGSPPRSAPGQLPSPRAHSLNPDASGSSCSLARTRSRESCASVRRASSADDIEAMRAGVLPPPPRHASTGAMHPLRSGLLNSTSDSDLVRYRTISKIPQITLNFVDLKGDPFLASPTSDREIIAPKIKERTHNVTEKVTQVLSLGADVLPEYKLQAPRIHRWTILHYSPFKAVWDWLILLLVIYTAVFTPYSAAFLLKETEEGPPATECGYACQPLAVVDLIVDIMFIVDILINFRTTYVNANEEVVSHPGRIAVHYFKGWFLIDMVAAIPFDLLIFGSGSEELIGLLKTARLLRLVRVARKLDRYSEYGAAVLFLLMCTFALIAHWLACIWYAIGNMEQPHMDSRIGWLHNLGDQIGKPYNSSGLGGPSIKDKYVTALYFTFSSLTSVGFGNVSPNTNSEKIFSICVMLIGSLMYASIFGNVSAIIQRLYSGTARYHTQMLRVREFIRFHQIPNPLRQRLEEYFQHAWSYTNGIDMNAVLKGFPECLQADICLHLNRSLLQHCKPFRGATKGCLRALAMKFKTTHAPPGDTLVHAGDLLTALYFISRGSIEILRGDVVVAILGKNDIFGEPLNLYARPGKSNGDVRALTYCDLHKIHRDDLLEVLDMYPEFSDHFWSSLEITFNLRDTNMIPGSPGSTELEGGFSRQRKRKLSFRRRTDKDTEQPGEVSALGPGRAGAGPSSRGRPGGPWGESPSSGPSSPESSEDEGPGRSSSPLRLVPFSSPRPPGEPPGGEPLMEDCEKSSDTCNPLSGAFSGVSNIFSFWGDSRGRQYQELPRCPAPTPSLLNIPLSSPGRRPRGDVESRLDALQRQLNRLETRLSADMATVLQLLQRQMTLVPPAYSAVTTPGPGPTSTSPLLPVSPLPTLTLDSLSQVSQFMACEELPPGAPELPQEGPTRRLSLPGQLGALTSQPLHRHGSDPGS
# UniProt Q13936, whole entry: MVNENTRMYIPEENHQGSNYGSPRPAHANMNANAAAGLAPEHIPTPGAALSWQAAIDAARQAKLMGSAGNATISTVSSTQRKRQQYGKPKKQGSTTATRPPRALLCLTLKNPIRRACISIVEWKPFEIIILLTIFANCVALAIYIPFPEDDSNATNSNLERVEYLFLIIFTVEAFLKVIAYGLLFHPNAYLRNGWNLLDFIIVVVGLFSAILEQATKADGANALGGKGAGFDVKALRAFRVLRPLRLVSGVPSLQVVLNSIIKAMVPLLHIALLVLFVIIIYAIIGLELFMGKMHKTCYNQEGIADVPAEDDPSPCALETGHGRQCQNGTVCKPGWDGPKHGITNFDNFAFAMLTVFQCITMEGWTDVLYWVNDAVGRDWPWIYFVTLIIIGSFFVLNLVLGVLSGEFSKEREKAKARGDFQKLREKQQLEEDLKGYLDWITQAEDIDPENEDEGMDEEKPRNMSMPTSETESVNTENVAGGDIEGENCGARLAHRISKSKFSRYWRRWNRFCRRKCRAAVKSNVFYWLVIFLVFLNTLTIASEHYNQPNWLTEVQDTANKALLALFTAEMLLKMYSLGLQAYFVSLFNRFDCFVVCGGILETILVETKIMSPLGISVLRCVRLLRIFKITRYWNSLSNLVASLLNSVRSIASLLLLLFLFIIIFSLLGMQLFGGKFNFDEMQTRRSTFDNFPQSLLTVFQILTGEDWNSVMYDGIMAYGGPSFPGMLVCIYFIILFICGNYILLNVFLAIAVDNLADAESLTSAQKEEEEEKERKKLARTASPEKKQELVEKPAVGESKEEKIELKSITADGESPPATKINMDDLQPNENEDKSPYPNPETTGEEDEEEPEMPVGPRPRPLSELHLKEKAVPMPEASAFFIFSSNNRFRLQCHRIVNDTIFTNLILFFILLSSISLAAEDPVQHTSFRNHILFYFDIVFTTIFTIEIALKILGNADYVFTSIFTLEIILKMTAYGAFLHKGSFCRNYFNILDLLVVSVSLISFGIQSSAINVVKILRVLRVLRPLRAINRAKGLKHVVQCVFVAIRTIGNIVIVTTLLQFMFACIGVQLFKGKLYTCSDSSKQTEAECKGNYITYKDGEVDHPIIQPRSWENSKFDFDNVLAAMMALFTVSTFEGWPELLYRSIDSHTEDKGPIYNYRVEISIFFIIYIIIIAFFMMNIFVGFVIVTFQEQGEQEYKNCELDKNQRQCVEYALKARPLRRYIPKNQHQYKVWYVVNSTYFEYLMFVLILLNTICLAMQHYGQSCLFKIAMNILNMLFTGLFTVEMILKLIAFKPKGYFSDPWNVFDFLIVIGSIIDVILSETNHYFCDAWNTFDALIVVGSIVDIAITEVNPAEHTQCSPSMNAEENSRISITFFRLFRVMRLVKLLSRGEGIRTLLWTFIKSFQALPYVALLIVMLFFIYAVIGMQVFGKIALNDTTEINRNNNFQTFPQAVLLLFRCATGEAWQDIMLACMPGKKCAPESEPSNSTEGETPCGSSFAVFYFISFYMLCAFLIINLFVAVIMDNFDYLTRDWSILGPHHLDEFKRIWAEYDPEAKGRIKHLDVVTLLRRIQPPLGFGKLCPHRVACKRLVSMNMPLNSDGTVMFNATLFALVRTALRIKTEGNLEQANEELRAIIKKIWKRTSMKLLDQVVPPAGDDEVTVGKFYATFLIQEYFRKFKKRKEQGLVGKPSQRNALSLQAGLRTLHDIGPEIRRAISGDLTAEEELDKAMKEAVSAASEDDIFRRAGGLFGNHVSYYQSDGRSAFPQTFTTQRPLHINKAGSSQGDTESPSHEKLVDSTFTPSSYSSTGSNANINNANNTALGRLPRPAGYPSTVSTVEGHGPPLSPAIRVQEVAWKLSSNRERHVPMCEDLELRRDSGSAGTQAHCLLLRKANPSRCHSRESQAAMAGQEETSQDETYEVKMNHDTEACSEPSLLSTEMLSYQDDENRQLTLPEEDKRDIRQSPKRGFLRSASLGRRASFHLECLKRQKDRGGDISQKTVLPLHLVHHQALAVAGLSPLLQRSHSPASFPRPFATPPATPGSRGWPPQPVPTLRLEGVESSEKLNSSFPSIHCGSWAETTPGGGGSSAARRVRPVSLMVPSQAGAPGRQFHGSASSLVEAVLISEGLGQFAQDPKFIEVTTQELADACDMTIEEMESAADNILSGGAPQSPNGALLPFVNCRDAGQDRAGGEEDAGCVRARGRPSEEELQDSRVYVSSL
# UniProt P23975, whole entry: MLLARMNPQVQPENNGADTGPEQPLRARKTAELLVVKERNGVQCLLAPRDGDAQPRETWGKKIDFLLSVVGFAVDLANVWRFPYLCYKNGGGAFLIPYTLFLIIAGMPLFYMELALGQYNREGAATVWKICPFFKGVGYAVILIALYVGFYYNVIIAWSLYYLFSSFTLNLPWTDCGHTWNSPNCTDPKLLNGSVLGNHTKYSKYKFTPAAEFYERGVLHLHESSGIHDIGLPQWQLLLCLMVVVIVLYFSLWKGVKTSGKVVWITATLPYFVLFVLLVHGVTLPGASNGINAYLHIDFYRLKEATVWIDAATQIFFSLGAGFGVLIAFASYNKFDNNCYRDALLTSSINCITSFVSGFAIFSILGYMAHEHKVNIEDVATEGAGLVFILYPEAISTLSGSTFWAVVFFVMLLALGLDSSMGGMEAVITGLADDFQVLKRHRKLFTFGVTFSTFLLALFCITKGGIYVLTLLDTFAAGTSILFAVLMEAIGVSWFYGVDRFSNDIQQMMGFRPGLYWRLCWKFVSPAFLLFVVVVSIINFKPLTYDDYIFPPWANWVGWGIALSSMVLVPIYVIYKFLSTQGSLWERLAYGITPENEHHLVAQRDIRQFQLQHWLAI
# UniProt P22303: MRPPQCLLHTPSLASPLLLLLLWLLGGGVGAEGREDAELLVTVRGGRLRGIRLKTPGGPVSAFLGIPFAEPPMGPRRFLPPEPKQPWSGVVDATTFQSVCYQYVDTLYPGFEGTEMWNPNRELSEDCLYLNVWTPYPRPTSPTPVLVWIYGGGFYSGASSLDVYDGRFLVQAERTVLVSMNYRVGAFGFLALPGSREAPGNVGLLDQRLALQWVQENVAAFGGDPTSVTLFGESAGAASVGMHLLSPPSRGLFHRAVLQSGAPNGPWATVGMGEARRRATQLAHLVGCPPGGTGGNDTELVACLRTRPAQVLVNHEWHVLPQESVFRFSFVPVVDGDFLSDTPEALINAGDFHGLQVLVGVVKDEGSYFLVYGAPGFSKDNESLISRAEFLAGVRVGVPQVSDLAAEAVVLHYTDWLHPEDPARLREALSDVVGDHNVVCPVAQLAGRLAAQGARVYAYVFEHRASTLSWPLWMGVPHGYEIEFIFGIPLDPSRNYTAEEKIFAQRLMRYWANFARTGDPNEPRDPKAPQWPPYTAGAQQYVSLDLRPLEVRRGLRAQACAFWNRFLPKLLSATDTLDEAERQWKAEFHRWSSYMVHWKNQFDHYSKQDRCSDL
# UniProt P41145: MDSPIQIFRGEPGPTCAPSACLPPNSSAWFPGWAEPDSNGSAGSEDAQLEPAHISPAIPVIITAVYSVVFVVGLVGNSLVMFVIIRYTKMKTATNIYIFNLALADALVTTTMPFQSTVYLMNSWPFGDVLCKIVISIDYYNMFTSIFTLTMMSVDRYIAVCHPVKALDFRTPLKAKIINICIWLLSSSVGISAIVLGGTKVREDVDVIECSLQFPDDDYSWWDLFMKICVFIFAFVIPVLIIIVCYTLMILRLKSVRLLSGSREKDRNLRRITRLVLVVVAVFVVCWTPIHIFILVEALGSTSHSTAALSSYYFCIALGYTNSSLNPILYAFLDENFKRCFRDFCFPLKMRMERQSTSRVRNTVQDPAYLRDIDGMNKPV
# Tests used:
# [1] = molecular target: Voltage-gated inwardly rectifying potassium channel KCNH2 (Homo sapiens, UniProt Q12809)
# [2] = molecular target: Voltage-dependent L-type calcium channel subunit alpha-1C (Homo sapiens, UniProt Q13936); assay type: functional, cell-based
# [3] = molecular target: Sodium-dependent noradrenaline transporter (Homo sapiens, UniProt P23975)
# Acetylcholinesterase [4] = molecular target: T1, Acetylcholinesterase (Homo sapiens, UniProt P22303); assay type: functional
# Acetylcholinesterase [5] = molecular target: T1, Acetylcholinesterase; assay type: functional; remark: listed apart in the source
# [6] = molecular target: Kappa-type opioid receptor (Homo sapiens, UniProt P41145)
# [7] = molecular target: T2, Alpha-1A adrenergic receptor (Homo sapiens, UniProt P35348)
# T2 sequence (P35348 whole entry): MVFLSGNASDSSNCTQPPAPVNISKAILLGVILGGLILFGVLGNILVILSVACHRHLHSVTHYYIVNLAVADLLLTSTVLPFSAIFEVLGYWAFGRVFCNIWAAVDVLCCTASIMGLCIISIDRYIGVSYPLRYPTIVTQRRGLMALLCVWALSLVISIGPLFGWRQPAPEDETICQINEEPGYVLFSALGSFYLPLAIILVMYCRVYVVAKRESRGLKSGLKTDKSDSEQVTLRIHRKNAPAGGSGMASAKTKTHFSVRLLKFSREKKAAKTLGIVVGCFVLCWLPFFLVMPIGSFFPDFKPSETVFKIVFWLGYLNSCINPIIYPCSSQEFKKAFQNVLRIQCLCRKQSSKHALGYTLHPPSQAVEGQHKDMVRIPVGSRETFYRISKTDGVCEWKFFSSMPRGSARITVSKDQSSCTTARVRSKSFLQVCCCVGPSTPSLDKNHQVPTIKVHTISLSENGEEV
# Note: assay procedure not described here.
compound,measurement,setting,value
CC(C)COCC(CN(Cc1ccccc1)c1ccccc1)N1CCCC1 (stereo not drawn) [BEPRIDIL],AC50,[1],251 nM
same,AC50,[2],> 50000 nM
CC(NC(C)(C)C)C(=O)c1cccc(Cl)c1 (stereo not drawn) [BUPROPION],AC50,[3],> 10000 nM
CC[C@H]1OC(=O)[C@H](C)[C@@H](O[C@H]2C[C@@](C)(OC)[C@@H](O)[C@H](C)O2)[C@H](C)[C@@H](O[C@@H]2O[C@H](C)C[C@H](N(C)C)[C@H]2O)[C@](C)(O)C[C@@H](C)C(=O)[C@H](C)[C@@H](O)[C@]1(C)O [ERYTHROMYCIN],AC50,Acetylcholinesterase [4],> 30000 nM
same,AC50,Acetylcholinesterase [5],> 30000 nM
COc1ccc2c3c1O[C@H]1C(=O)CC[C@H]4[C@@H](C2)N(C)CC[C@]314 [HYDROCODONE],AC50,[6],766 nM
CN1CCCCC1CCN1c2ccccc2Sc2ccc([S+](C)[O-])cc21 (stereo not drawn) [MESORIDAZINE],AC50,[1],3600 nM
CN(C)CCOC1=Cc2ccccc2Sc2ccc(Cl)cc21 [ZOTEPINE],AC50,[7],3 nM
